Data on 1 substance can be found in US20160136295A1, “BIOMARKERS FOR TREATMENT WITH ANTI-TUBULIN CHEMOTHERAPEUTIC COMPOUNDS” (GENENTECH, INC., priority 2012, published 2016).

Common to all, as to format: biochemical, human
One test relates to Mcl-1 S121. The test can be described thus: In vitro kinase reactions: percent phosphorylation of full-length recombinant Mcl-1 at S121. The following applies: for Percent phosphorylation S121, AVE: average of INJ1 and INJ2; for Percent phosphorylation S121, INJ1: sample injection 1; for Percent phosphorylation S121, INJ2: sample injection 2. The procedure:
(§1) To determine the suitability of residues in Mcl-1 as kinase substrates, 10 μM of Mcl-1 was incubated with selected kinase at enzyme concentrations between 25 and 100 nM. For these reactions the Mcl-1 was dialyzed into 20 mM Phosphate, 50 mM Tris pH 7.5 150 mM NaCl, 5 mM DTT and 0.5% CHAPS. The protein solution was further supplemented with MgCl2 to 10 mM and ATP to 1 mM prior to addition of kinase. Purified recombinant kinases were purchased from Invitrogen Co. (Carlsbad, Calif.).
(§2) 10 μl of each of the Mcl-1 kinase reactions (100 pmol) were loaded onto a 4-12% Bis-Tris gel for separation by SDS-PAGE after reduction. Mcl-1 bands were excised from the gel, dehydrated (50% acetonitrile in 50 mM ammonium bicarbonate then 100% acetonitrile washes), and incubated with 0.2 μg trypsin overnight at 37° C. Peptides were eluted from the gel using 50% acetonitrile/1% formic acid, dried in a SpeedVac® (Thermo Fisher Savant), reconstituted in 0.1% formic acid containing custom Mcl-1 isotopically labeled synthetic peptides representing tryptic peptides 105-136 and 137-176 (Cell Signaling Technologies, Danvers, Mass.), as follows:
(§3) Samples were injected in duplicate via autosampler onto a nanoAcquity® UPLC (Waters, Milford, Mass.) and analyzed on-line via nanospray ionization into an LTQ-Orbitrap® mass spectrometer at a concentration of 300 fmol synthetic peptide mix per injection. Areas were integrated for the isotopic and kinase phosphorylated peptides, and compared to their non-phosphorylated peptide counterparts to obtain percent phosphorylation values. For phosphorylation analysis of T92, no synthetic peptide was available so peak areas of the phosphorylated peptide covering residues 76-95 was divided by the total occurrence of peptide 76-95 in both phosphorylated and non-phosphorylated forms.

Another test relates to Mcl-1 S159/T163. Nature of the test: In vitro kinase reactions: percent phosphorylation of full-length recombinant Mcl-1 at S159+T163. The following applies: for Percent phosphorylation S159/T163, AVE: average; for Percent phosphorylation S159/T163, INJ1: sample injection 1; for Percent phosphorylation S159/T163, INJ2: sample injection 2. The procedure: as §1, §2, §3
The next test has as its system Mcl-1 T163. Nature of the test: In vitro kinase reactions: percent phosphorylation of full-length recombinant Mcl-1 at T163. The following applies: single kinase reactions. How it is done: as §1, §2, §3
Another test has as its system Mcl-1 T92. The test can be described thus: In vitro kinase reactions: percent phosphorylation of full-length recombinant Mcl-1 at T92. Particulars: single kinase reactions, peak areas of 0 and 1P, triple charged state. How it is done:
as §1, §2, §3

Where [1] appears, read: % phos on S159+T163, CDK1 + kinase panel reactions.
[2] abbreviates: % phos on S159+T163, single kinase reactions.

For “CDK1: purified recombinant kinase purchased from Invitrogen”, in the test on Mcl-1 S121 (CDK1 + kinase panel reactions), the “Percent phosphorylation S121, AVE” value amounted to 1.48%; the “Percent phosphorylation S121, INJ1” value amounted to 1.60%; the “Percent phosphorylation S121, INJ2” value came to 1.36%. Besides, in the test with Mcl-1 S121 (single kinase reactions), the “Percent phosphorylation S121, AVE” value is listed as 0.78%; the “Percent phosphorylation S121, INJ1” value was 0.93%; the “Percent phosphorylation S121, INJ2” value stood at 0.64%. For the same substance, in the test with Mcl-1 S159/T163 (setting [1]), the “Percent phosphorylation S159/T163, AVE” value was 0.10%; the “Percent phosphorylation S159/T163, INJ1” value was 0.00%; the “Percent phosphorylation S159/T163, INJ2” value is 0.20%. Moreover, in the test on Mcl-1 S159/T163 (setting [2]), the “Percent phosphorylation S159/T163, AVE” value stood at 0.15%; the “Percent phosphorylation S159/T163, INJ1” value is 0.00%; the “Percent phosphorylation S159/T163, INJ2” value turned out to be 0.29%. In addition, in the test with Mcl-1 T163 (average of INJ1 and INJ2), the “Percent phosphorylation T163, AVE” value was 28.93%. For the same substance, the “Percent phosphorylation T163, INJ1” value in the test on Mcl-1 T163 (sample injection 1) worked out at 29.31%. The “Percent phosphorylation T163, INJ2” value with Mcl-1 T163 (sample injection 2) came to 28.55%. The “Percent phosphorylation T92, AVE” value with Mcl-1 T92 (average) is listed as 73.15%. Also, the “Percent phosphorylation T92, INJ1” value in the test on Mcl-1 T92 (sample injection 1) amounted to 74.33%. Further, the “Percent phosphorylation T92, INJ2” value with Mcl-1 T92 (sample injection 2) is 71.97%.
